The target of this assay is ADAM10 (Homo sapiens, UniProt O14672). As to the kind of experiment: ADAM10 assay. It counts as biochemical. Here is the method: All common chemicals were purchased from Sigma.
Both assays followed the same general protocol. […] After 30 min incubation at RT, the reactions were started by addition of 2.5 µL of 2× solutions of substrate (R&D Systems cat#: ES010, Mca-KPLGL-Dpa-AR-NH2, 20 µM). […] All compounds were tested in 10-point, 1:3 serial dilutions dose-response format starting with highest concentration of 100 µM. IC50 values were determined using non-linear regression analysis using the GraphPad Prism 8.0 suite of programs.

Sequences of proteins named here, by UniProt entry; tags and fusion partners are left off. Residues count along the entry.
UniProt O14672, 214-748 limits assumed: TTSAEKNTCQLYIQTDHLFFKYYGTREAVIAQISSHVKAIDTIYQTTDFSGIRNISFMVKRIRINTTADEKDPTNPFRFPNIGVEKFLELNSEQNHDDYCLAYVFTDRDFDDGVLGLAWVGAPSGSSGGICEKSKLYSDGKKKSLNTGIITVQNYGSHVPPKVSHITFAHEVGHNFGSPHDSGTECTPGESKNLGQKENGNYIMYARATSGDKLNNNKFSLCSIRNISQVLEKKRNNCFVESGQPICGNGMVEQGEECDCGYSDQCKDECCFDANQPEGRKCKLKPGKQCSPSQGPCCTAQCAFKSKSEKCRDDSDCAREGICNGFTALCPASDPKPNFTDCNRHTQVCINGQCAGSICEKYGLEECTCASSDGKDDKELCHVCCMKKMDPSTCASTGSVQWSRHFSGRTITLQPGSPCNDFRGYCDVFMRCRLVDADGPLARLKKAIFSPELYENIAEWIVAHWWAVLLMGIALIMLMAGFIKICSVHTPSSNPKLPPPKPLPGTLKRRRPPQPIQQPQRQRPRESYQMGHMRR

Here are results for one compound from paper PMC7997411, “Discovery and Optimization of Selective Inhibitors of Meprin α (Part II)” (Pharmaceuticals, 2021).

pIC50: −log10 of the molar value.

For orientation: pIC50 means −log10 of the IC50, conventionally taken in molar units. `CCCCC[C@H](CC(=O)NO)C(=O)N[C@H](C(=O)N1CCC[C@H]1CO)C(C)C` [Actinonin, actinonin, reference compound] gave a negative-log IC50 (pIC50) of 5.66.
